For data set [1] the following is noted: Table 1.
For data set [2] the following is noted: Table 1; average of literature references only; pH 7.4; cited from earlier work.

Some compounds may have been tested in ways that are not shown here.

In the case of `CCC(=O)N(c1ccccc1)C1CCN(CCc2ccccc2)CC1`, in data set [1], the “Res (logDoct − ElogDoct)” value came to 0.52. In data set [1] (capacity factor extrapolated to 0% methanol, average of three to five determinations, pH 7.4), the “log k′w” value is 1.94. The ElogDoct in data set [1] (from log k′w by Equation 1, pH 7.4) was 2.39. In addition, in data set [2], the logDoct is listed as 2.91.

(Values after patent US20020161528A1, “Tool for lipophilicity determination in drug discovery basic and neutral compounds” (Pfizer Inc., priority 2001, published 2002).)
